ChEMBL document CHEMBL6083214, “Synthesis, biochemical screening and in-silico investigations of arylsulfonamides bearing linear and cyclic tails” (Bioorg Med Chem Lett, 2024)

Legend:
HCT-116 = experiment: cells; conditions: Homo sapiens, HCT-116, read-out: INH
MCF7 = experiment: cells; conditions: Homo sapiens, MCF7, read-out: INH

## N#Cc1cccc(/C=N/c2ccc(S(N)(=O)=O)cc2)c1
HCT-116
  inhibition at 10 µM: 46.9%
MCF7
  inhibition at 10 µM: 14.9%
